In ChEMBL document CHEMBL1126449 one finds IC50 data, which are given here for 1 molecule.

As usually defined, the IC50 is the concentration that inhibits the measured activity by half. High values mean a need for much substance, low ones inhibition by little substance.

The assay has as its target T1, Acetylcholinesterase (Mus musculus, UniProt P21836).
T1 sequence (P21836 whole entry): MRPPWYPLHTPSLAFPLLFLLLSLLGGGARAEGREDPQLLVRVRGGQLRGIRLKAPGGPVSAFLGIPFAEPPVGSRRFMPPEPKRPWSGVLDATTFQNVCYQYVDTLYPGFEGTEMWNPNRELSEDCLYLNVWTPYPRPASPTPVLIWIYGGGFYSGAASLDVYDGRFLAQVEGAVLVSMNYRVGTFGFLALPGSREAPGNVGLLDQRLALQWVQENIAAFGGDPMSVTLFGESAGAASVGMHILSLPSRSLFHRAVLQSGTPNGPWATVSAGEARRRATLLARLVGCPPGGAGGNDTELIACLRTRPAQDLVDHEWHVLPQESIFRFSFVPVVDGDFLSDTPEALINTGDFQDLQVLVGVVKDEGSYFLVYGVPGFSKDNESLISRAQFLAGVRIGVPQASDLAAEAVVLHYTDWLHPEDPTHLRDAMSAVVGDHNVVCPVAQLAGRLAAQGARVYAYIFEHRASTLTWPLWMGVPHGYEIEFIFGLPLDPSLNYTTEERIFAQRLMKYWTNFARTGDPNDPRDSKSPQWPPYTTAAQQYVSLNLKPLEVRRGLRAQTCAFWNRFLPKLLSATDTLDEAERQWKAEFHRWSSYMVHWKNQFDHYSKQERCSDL
In words: biochemical.

As to `O=C1c2ccccc2CC1CC1CCN(Cc2ccccc2)CC1` (stereo unspecified), the IC50 is 150 nM. That is a sub-micromolar value.
